Measured values as given in patent publication US7910622B2, “Modulation of bacterial quorum sensing with synthetic ligands” (Wisconsin Alumni Research Foundation, priority 2007, dated 2011).

By UniProt entry, the sequences of proteins in these tests, tags left out. Where a name states a change or a piece, a line headed by the entry shows the natural chain unless it says otherwise.
UniProt P35327: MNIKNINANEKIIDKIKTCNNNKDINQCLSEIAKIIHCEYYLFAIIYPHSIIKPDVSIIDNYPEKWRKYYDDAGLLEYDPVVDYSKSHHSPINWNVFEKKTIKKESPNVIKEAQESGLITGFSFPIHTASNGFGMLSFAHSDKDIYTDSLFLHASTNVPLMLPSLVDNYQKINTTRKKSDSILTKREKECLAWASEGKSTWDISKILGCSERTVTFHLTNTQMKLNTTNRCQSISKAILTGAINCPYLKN

Molecular target: T1, LuxR (Aliivibrio fischeri, UniProt P35327)
T1 construct: a Δ-luxI derivative of V. fischeri ES114, in which the native lux operon behaves as the bioluminescent reporter; endogenous in cells; host or cells: V. fischeri ES114 (Δ-luxI)
Assay: cell-based
Set-up: species or system Vibrio fischeri
Conditions: LuxR IC50, determined against 5 μM OHHL
Protocol: Luminescence assays. For agonism assays, an appropriate amount of AHL stock solution was added into a 96-well plate. An overnight culture of E. coli or V. fischeri was diluted 1:10 with appropriate media (LB plus 10 μg/mL tetracycline for E. coli; LBS for V. fischeri). A 200-μL portion of the diluted culture was added to each well of the plate. Plates were grown for 4-8 h with shaking (200 rpm; 30° C. for E. coli and RT for V. fischeri). Luminescence was measured using a multilabel plate reader and normalized to cell density. […] All assays were performed in triplicate. Graphpad Prism software was used to calculate IC50 and EC50 values.
Vibrio fischeri assay procedures. […] Luminescence then was measured and normalized to cell density per well. […] IC50 and EC50 values were calculated using GraphPad Prism software using a sigmoidal curve fit.
(§1) V. fischeri reporter gene assay protocols. […] Luminescence then was measured and normalized to cell density per well.
(§2) Dose response reporter gene assays. […] IC50 and EC50 values were calculated using GraphPad Prism software (v. 4.0) using a sigmoidal curve fit.
as §1, §2

For `O=C(Cc1ccc(Br)cc1)N[C@H]1CCOC1=O` [A17, 4-bromo-phenylacetanoyl HL, reference compound], the IC50 was 4.13 µM.
